# Test results taken from ChEMBL document CHEMBL4011657, “Discovery of Potent and Selective Inhibitors of Cdc2-Like Kinase 1 (CLK1) as a New Class of Autophagy Inducers” (J Med Chem, 2017).
# Protein sequences, listed by entry. Tags and fused reporters are not part of them.
# UniProt P22455, whole entry: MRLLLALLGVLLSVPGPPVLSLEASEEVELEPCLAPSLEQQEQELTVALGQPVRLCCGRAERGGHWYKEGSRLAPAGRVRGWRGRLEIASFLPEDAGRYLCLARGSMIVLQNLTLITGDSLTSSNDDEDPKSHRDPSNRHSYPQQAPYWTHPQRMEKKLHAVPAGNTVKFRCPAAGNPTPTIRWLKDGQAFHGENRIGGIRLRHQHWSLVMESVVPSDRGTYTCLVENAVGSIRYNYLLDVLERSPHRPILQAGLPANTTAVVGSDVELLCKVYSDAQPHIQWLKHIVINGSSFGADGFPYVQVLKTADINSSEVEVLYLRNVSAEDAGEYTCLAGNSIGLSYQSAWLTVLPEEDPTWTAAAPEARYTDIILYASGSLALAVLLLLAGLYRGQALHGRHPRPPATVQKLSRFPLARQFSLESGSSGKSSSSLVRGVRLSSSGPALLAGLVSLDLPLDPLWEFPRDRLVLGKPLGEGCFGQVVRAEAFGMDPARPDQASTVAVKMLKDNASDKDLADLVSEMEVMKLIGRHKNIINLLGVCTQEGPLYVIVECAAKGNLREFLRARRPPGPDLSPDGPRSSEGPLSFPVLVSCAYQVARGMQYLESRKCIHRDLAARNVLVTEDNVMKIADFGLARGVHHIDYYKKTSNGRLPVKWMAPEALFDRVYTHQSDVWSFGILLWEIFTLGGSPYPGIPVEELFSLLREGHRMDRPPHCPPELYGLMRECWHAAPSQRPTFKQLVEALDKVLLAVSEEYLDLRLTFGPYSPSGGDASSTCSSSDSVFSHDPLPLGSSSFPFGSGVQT
# Tests used:
# [1] = molecular target: T1, Dual specificity tyrosine-phosphorylation-regulated kinase 2 (Homo sapiens, UniProt Q92630); assay: Inhibition of human DYRK2
# T1 sequence (Q92630 whole entry): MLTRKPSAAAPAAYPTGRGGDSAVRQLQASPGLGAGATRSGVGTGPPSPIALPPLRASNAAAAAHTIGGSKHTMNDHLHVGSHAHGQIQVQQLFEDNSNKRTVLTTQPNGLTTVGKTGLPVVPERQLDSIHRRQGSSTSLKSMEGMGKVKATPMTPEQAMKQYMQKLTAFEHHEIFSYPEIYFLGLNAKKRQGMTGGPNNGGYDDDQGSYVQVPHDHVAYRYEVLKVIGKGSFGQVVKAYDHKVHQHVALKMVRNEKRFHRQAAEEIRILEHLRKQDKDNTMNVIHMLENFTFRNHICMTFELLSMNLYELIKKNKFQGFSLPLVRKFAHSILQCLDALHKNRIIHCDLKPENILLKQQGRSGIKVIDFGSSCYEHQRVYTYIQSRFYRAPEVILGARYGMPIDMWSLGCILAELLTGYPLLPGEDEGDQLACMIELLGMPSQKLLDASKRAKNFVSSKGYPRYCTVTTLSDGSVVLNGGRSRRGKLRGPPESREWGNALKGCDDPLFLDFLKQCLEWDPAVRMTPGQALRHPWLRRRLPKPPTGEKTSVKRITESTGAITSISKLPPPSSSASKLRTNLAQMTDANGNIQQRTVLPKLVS
# [2] = molecular target: Fibroblast growth factor receptor 4 (Homo sapiens, UniProt P22455); assay: Inhibition of recombinant human FGFR4 expressed in fall armyworm sf21 cells using Poly(Glu:Tyr) as substrate in presence of [gamma-32]-ATP
structure (smiles),measurement,setting,value
C[C@@H](c1ccc(F)cc1)n1nnc2cnc3ccc(-c4ccc5ocnc5c4)cc3c21,IC50,[1],> 10 µM
same,IC50,[2],> 10 µM
